Test [1] addresses CDK2/Cyclin E2 (Homo sapiens, UniProt P24941). Description: CDK2/CyclinE2 Enzymatic Activity Assay (TR-FRET). The following applies: read-out: CDK2_El IC50, CDK2/CyclinE2 1 nM, ATP 1 mM. The method, then:
CDK2/CyclinE2 Enzymatic Activity Assay
The inhibitory activity of compounds was evaluated in vitro using TR-FRET assay with white 384-well low volume microplate (Greiner Bio-One). CDK2/Cyclin E2 catalyzed phosphorylation of peptide in the presence and absence of compounds was measured and used in IC50 determination. Recombinant protein complex CDK2/Cyclin E2, expressed from insect cell, was purchased from ProQinase. Testing compounds were dissolved in DMSO at 1 mM and tested in 9-dose IC50 mode. The reaction mixture was prepared by mixing CDK2/CyclinE2 (1 nM final), ULight-4E-BP1 (50 nM final, Perkinelmer, TRF0128-D), and ATP (1 mM final) in assay buffer (20 mM of HEPES pH 7.4, 1 mM of EGTA, 0.05% BSA, 0.005% Tween 20, and 1 mM TCEP). The compound of interest in DMSO was added to each well in 3-fold serial dilution by dispenser (TECAN D300E) to make a 9.9 μL of reaction mixture. After 20 minutes preincubation at room temperature, 0.1 μL MgCl2 (10 mM final) was added to initiate the reaction. Following a 45 minute incubation at 37° C., the reaction was stopped by addition of 2 μL of quenching buffer consisting of Lance detection buffer (Perkinelmer CR97-100C), LANCE Ultra Europium-anti-P-4E-BP1 (Perkinelmer, TRF0216-D), EDTA, and incubate at room temperature for additional 60 minutes in the dark. The reaction signal was measured by Envision multimode plate reader (PerkinElmer, 2102-0010). IC50 values were determined by fitting the data to the standard 4 parameters with Hill Slope using GraphPad Prism software.
In general terms: In TR-FRET formats the signal depends on donor and acceptor labels being close together.

Chains of the proteins cited; added tags and fusions are not shown.
UniProt P11802, whole entry: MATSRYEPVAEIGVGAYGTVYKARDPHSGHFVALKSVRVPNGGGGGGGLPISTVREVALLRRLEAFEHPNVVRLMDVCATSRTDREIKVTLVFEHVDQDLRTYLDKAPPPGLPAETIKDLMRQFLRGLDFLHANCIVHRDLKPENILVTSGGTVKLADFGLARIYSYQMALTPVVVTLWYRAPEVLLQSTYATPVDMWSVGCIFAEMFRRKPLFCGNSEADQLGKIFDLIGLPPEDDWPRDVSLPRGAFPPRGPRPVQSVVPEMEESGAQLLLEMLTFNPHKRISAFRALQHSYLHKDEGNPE
UniProt P24385, whole entry partner: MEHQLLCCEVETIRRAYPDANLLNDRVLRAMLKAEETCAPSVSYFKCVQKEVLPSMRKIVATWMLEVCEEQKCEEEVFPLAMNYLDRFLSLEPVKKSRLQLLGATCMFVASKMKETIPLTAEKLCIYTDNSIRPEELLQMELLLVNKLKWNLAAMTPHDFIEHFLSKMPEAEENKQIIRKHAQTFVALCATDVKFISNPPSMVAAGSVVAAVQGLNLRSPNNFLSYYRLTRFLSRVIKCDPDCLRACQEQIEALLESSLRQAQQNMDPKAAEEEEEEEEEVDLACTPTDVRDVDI

For test [2], the target named is CDK4/Cyclin D1 (Homo sapiens, UniProt P11802). Description: CDK4/CyclinD1 Enzymatic Activity Assay (TR-FRET). Particulars: read-out: CDK4_D1 IC50, CDK4/CyclinD1 1 nM, ATP 2 mM. As for the experimental part:
CDK4/CyclinD1 Enzymatic Activity Assay
The inhibitory activity of compounds was evaluated in vitro using TR-FRET assay with white 384-well low volume microplate (Greiner Bio-One). CDK4/Cyclin D1 catalyzed phosphorylation of peptide in the presence and absence of compounds was measured and used in IC50 determination. Recombinant protein complex CDK4/Cyclin D1, expressed from insect cell, was purchased from ProQinase. Testing compounds were dissolved in DMSO at 1 mM and tested in 9-dose IC50 mode. The reaction mixture was prepared by mixing CDK4/CyclinD1 (1 nM final), ULight-4E-BP1 (100 nM final, Perkinelmer, TRF0128-D), and ATP (2 mM final) in assay buffer (20 mM of HEPES pH 7.4, 1 mM of EGTA, 0.05% BSA, 0.005% Tween 20, and 1 mM TCEP). The compound of interest in DMSO was added to each well in 3-fold serial dilution by the dispenser (TECAN D300E) to make a 9.9 μL of reaction mixture. After 20 minutes preincubation at room temperature, 0.1 μL MgCl2 (10 mM final) was added to initiate the reaction. Following a 45 minute incubation at 37° C., the reaction was stopped by addition of 2 μL of quenching buffer consisting of Lance detection buffer (Perkinelmer CR97-100C), LANCE Ultra Europium-anti-P-4E-BP1 (Perkinelmer, TRF0216-D), EDTA, and incubated at room temperature for additional 60 minutes in dark. The reaction signal was measured by Envision multimode plate reader (PerkinElmer, 2102-0010). IC50 values were determined by fitting the data to the standard 4 parameters with Hill Slope using GraphPad Prism software.

Test [3] concerns pRB in OVCAR3 cells. Description: pRB ICW Assay in OVCAR3 Cells. The following applies: read-out: OVCAR3 p-RB ICW IC50, incubated with compound for 2 hours. The method, then:
pRB ICW Assay in OVCAR3 Cells
OVCAR3 cells were maintained in RPMI (Corning, Catalog #: 10-040-CV) supplemented with 10% v/v FBS (Gibco, Catalog #: 26140-079), 1% v/v Penicillin Streptomycin (Gibco, Catalog #15140-122.) OVCAR3 cells grown at log phase were trypsinized, counted, and resuspended in fresh medium to reach a final density of 6.7e4 cells/mL and 75 μL of culture were dispensed into a 384-well plate (Falcon, cat #353962) using a Multidrop Combi dispenser (Thermo Scientific). The next day, compounds were dispensed as a 9-point, ½ log serial dilution using a Tecan digital dispenser (D300e), and cells were incubated with compound for 2 hours in a humidified incubator at 37° C. A reference compound at a final concentration of 10 μM was used as a control for maximum inhibition. Each compound was tested in duplicates for each experiment. At the end of the incubation, 25 μL of 16% paraformaldehyde (Electron Microscopy, cat #15710) was slowly added to each well and the plate was incubated at room temperature (RT) for 30 minutes to fix cells. Cells were then permeabilized by incubating with 50 μL/well of wash buffer (lx PBS with 0.1% Triton X-100) 5×5 minutes, followed by 1 hour blocking with 30 μL/well of Odyssey blocking buffer (Li—COR, cat #927-40000), at RT. Anti-phosphor RB antibody (Cell signaling 8516S) was diluted 1:1000 in Odyssey blocking buffer and 20 μL was added to all wells and incubated overnight in 4° C. with gently rocking. The next day, cells were washed 5×5 min with 50 μL/well of wash buffer, followed with 1 hour incubation with secondary antibody and DRAQ5 diluted in Odyssey blocking buffer (1:500 dilution for secondary antibody and 1:2000 dilution for DRAQ5), 5×5 min washes, and one last wash with water. Plates were dried in 37° C. oven for 5 minutes and scanned using Li—COR Odyssey CLx imaging system to acquire intensities at 700 and 800 nm channels.

IC50 data for 4 compounds are collected here from patent US11939340B2, “CDK inhibitors and their use as pharmaceuticals” (Prelude Therapeutics Incorporated, priority 2022, dated 2024).

For `CC(C)C12CCCCN1C(=O)c1cc(-c3nc(NC4CCN(S(C)(=O)=O)CC4)ncc3C(F)(F)F)sc12` (single isomer, unassigned), the IC50 in test [1] is less than 0.1 µM; in test [2] it was less than 0.1 µM; in test [3], 0.1 to 0.5 µM.

In the case of `CC(C)C12CCCN1C(=O)c1cc(-c3nc(NC4CCN(S(C)(=O)=O)CC4)ncc3C(F)(F)F)sc12` (single isomer, unassigned), the IC50 is less than 0.1 µM in test [1], less than 0.1 µM in test [2] and 0.1 to 0.5 µM in test [3].

On to `CC12CCCCN1C(=O)c1cc(-c3nc(NC4CCN(S(C)(=O)=O)CC4)ncc3F)sc12` (single isomer, unassigned) [7 or 8], for which the IC50 in test [1], in test [2] and in test [3] was less than 0.1 µM throughout.

`CC12CCCCN1C(=O)c1cc(-c3nc(NC4CCN(S(C)(=O)=O)CC4)ncc3F)sc12` (single isomer, unassigned) [8 or 7]: the IC50 in test [1] is less than 0.1 µM; in test [2], less than 0.1 µM; in test [3], 0.1 to 0.5 µM.
